# Measured affinities in a library of Ab-91 heavy chain variants

Target peptide (SARS-CoV-2 spike, HR2 region): PDVDLGDISGINAS

Parent: Ab-91, a human scFv built as VL, a 15-residue (Gly4Ser)3 linker, VH. Only the CDRs of the heavy chain vary.
VL: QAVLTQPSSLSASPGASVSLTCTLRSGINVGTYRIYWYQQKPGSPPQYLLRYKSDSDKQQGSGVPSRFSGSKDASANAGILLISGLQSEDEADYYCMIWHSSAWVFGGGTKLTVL
VH: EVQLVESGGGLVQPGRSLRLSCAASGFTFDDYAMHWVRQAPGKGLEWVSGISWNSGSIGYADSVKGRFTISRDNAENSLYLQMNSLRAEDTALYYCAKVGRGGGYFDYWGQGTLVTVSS

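Phage display of a naive human antibody library on the peptide gave the parent. AAYL51 was designed without a model: most single CDR substitutions and a random sample of double and triple ones. The scFvs were displayed on barcoded MATa yeast, the peptide on MATalpha yeast. Pairs that bind mate more often; barcode pairs of the diploids are counted by sequencing. A regression on co-assayed BCL2-family reference pairs converts the normalised counts of each replicate to an apparent Kd. The assay was run in three technical replicates.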

Each variant is given by its three heavy chain CDRs, as the data file delimits them; those of the parent are GFTFDDYAMH, GISWNSGSIGYADSVK, VGRGGGYFDY. Affinities are written as log10 Kd with Kd in nM; a lower number is a better binder. A mean of the replicates is given; it leaves out those without a signal. A pair that was not seen in any replicate is written "nd"; this usually means weak binding, but a binder can also be missed. Background: pairings of library AAYL51 with three empty control strains gave a value in 21% of cases (median 4.54, 5th percentile 3.26). Values in that range, when seen in few replicates, are hard to tell from nonspecific mating. Also given: how often the same scFv was detected with the empty control strains. For reference, the parent read 1.86 as the reference entry and 0.88 as a member of this library.

mean log10 Kd (nM),replicates with signal,empty controls,CDR-H1,CDR-H2,CDR-H3
3.84,1/3,4/9,GFTFDDYAMH,GISWNSGSIGDADCVE,VGRGGGYFDY
5.32,1/3,1/9,GFTFDSYAMH,GISWNSGSIGYADSVV,VGRWGGYFDY
3.54,3/3,0/9,GFTFDDYAMH,GISWNSGSVGYADSNK,VGRGGGYLDY
4.30,3/3,4/9,GFTFDDYANH,GIHWNSGSIGYADSVK,VGRGGGYFDT
3.31,1/3,0/9,GFTFDDYAMH,GISWNSGSIGYADSRF,VGRGYGYFDY
nd,0/3,1/9,GFTFDDVAMH,GIDWNSGSIGYADSVK,GGRGGGYFDY
5.83,1/3,7/9,GFTFDDYAMH,GISWNSGSIGGHDSVK,VGRGGGTFDY
4.98,3/3,3/9,GFTFDDYAFH,GISWNSGSSGYALSVK,VGRGGGYFDY
3.84,2/3,5/9,GFMFDSYAMH,GIWWNSGSIGYADSVK,VGRGGGYFDY
2.32,3/3,2/9,GFEFFDYAMH,GISWNSGSIGYADCVK,VGRGGGYFDY
nd,0/3,0/9,GFTFDDYAMH,GKSWNSGSICYADSVK,VGRGGGYIDY
1.08,3/3,5/9,GVTFDYYAMH,GISWNSGSMGYADSVK,VGRGGGYFDY
3.93,1/3,2/9,GFTFDDYAME,GIFWNSGSIGYADSVK,VGRGGGYFDY
5.03,2/3,3/9,GFTFDDYAMH,GISWNSTSIGYADSVK,VGRGIGRFDY
nd,0/3,1/9,GNTFDDYAMH,GISWNSGSIGYADSHK,VGRGGGPFDY
nd,0/3,0/9,GFTFDDYAMH,GISWNSGSIYYASSVK,VGRGGGNFDY
4.05,3/3,2/9,GFTFLMYAMH,GISWNSGSIGYADSVK,VGRGGGYFGY
nd,0/3,3/9,GFTFDDYAMH,GFSWNSGSIGYAHSVK,VGRGGGYFDY
nd,0/3,1/9,GFTFDDYAMH,FISWNAGSIGYADSVK,VGHGGGYFDY
nd,0/3,1/9,GFTFDDYAMH,GISWVSGSIGYADSVL,VGRTGGYFDY
nd,0/3,2/9,GFTFDDYAMH,VDSWNSDSIGYADSVK,VGRGGGYFDY
0.69,3/3,6/9,GFTFDDYAMH,GISWNSGSIGYADSVC,VGTGGGYFDY
nd,0/3,1/9,GFTFDNYAMH,GISWNSGSIGYADSVK,WGRGGGYFDY
4.76,1/3,2/9,GFTFDNYAMH,GISWNSGMIGYWDSVK,VGRGGGYFDY
nd,0/3,2/9,GFTFDLLAMH,GISWNSGSIGYADSVK,VGRYGGYFDY
5.04,1/3,5/9,GFTFDDYAMH,GISWNSGSIGHADSVK,VGRGGTAFDY
nd,0/3,3/9,GPFFDDYAMH,GISWNSGSIGYADSVK,VGRGGGYFQY
4.17,1/3,1/9,GFTFDDYAMH,QISWNSGSIGYQDSVK,VGRGNGYFDY
5.90,3/3,2/9,GFTFNDYAMH,GISWNSGSIGYAPSVK,VGRGGGLFDY
5.31,2/3,3/9,GDTFDDYKMH,GISWNSGSMGYADSVK,VGRGGGYFDY
4.20,3/3,1/9,GFTFDDYAMH,GISWNSTSIGTADSVS,VGRGGGYFDY
nd,0/3,2/9,GFTFDDYMMH,GISWNSGSIGYADSVE,VWRGGGYFDY
nd,0/3,3/9,GFTFDDYAMH,GISWNSGNHGYADSVK,VGRGGGYFGY
1.19,3/3,2/9,GFTFDDYAMH,GISWNSWSQGYADSVK,VGRGGGYFDC
3.64,2/3,1/9,GFTFDDYAMV,GISWNSVSIGYADSVK,VGRGIGYFDY
nd,0/3,0/9,GFTFCDYAMH,GISWNSGSIGYADSVT,WGRGGGYFDY
nd,0/3,3/9,GFTFDAYAMH,GISWNSGSIHYADSVK,NGRGGGYFDY
1.33,3/3,0/9,GFTFKDYPMH,GISWNSGSIGYADSVK,VGRGGGIFDY
nd,0/3,1/9,GFTFDDYAYH,GISWNSGSIGYADSVK,VERGLGYFDY
5.16,1/3,0/9,GFMFDDYTMH,GISWNSGSIGYADSVK,VGRGGGYFDY
3.31,1/3,2/9,MFTFDDYAMH,GISWNYGSIGYDDSVK,VGRGGGYFDY
5.57,1/3,0/9,GETFDDYAMH,GISWFSGSIGYADSVD,VGRGGGYFDY
0.98,3/3,0/9,GFEFDQYAMH,GISWNSGSIGYQDSVK,VGRGGGYFDY
5.78,2/3,4/9,GFTFDDDAMH,GISWNSGSIGYANSVK,MGRGGGYFDY
nd,0/3,0/9,GFTFDDYAMH,GISWNSGSIGYADSVM,VGRGGQYDDY
nd,0/3,0/9,GFTFDDYAMH,GISWNSGKIWYADSVK,VGRKGGYFDY
nd,0/3,0/9,GFTFDDYAMH,GISWPGGSIGYADSVK,VGRGGGYFFY
5.63,1/3,2/9,GFTFDDYAMH,GISENSGSIGYADSVM,VGRGGGYFDY
4.87,3/3,9/9,GFTFDDYAMV,GISWNSGVIGYPDSVK,VGRGGGYFDY
nd,0/3,0/9,GFTFDDYAMH,GRSWNSLSIGYADSVK,VGRWGGYFDY
nd,0/3,0/9,GFSFDDYAMH,GISWNSGSIGYADSVK,KGQGGGYFDY
5.73,2/3,5/9,GFTFDDYFMH,GISWNSGSIGYASSVK,VTRGGGYFDY
nd,0/3,0/9,GFQFDDYAMH,GISWNSGIIGYADSVF,VGRGGGYFDY
nd,0/3,0/9,GFTFDDYAMH,GISDNSGEIGYADYVK,VGRGGGYFDY
4.89,2/3,5/9,GFTKDDYAMH,GISWNVGSIGYADTVK,VGRGGGYFDY
nd,0/3,0/9,GCTFDDYAMH,GISWNSGSIGVADSVV,VGRGGGYFDY
nd,0/3,0/9,SFTFDDYAMH,CISWNSKSIGYADSVK,VGRGGGYFDY
4.28,1/3,2/9,GFTFDDYAQH,GISWNSGSIGYAGSVK,VGRGGGYFDY
5.22,1/3,3/9,GLTFDDYAMH,GISWNSGSIGYADSVK,VGRGIPYFDY
4.66,2/3,2/9,GFFFDDYAMH,GQSWNSGSIGYADSVK,VGRGGGYFDK
5.55,1/3,3/9,GFTFDCYAMH,GISWNSTSIQYADSVK,VGRGGGYFDY
5.39,3/3,6/9,GFTFDDYAMH,GIIWNSGSIGYADSVK,HHRGGGYFDY
4.50,3/3,1/9,GFTFFDYAMH,GFSWNSGSINYADSVK,VGRGGGYFDY
2.76,3/3,4/9,GFCFDDYAMH,GISWNSGSIGYKDNVK,VGRGGGYFDY
4.49,3/3,2/9,GFTFDDYAEH,GISWNKLSIGYADSVK,VGRGGGYFDY
3.19,1/3,2/9,GFTFDDYAMH,GISWNCGSIEYADSVK,HGRGGGYFDY
4.70,3/3,7/9,GFTFDDYAMH,GISWNSVSIGYYDSVK,VGRGGGYSDY

The 6 strongest on average among those seen in every replicate, once more:

CDR-H1	CDR-H2	CDR-H3	mean log10 Kd (nM)	replicates with signal	empty controls
GFTFDDYAMH	GISWNSGSIGYADSVC	VGTGGGYFDY	0.69	3/3	6/9
GFEFDQYAMH	GISWNSGSIGYQDSVK	VGRGGGYFDY	0.98	3/3	0/9
GVTFDYYAMH	GISWNSGSMGYADSVK	VGRGGGYFDY	1.08	3/3	5/9
GFTFDDYAMH	GISWNSWSQGYADSVK	VGRGGGYFDC	1.19	3/3	2/9
GFTFKDYPMH	GISWNSGSIGYADSVK	VGRGGGIFDY	1.33	3/3	0/9
GFEFFDYAMH	GISWNSGSIGYADCVK	VGRGGGYFDY	2.32	3/3	2/9

The measurements come from Engelhart et al. 2022 (doi:10.1038/s41597-022-01779-4) through the FLAb antibody collection.